# Antibody variant affinities, Ab-14 light chain, assay B

Target: peptide PDVDLGDISGINAS, taken from heptad repeat 2 (HR2) of SARS-CoV-2 spike.

Parent scFv Ab-14: VH joined to VL by three GGGGS repeats. Changes lie in the light chain CDRs alone.
VH: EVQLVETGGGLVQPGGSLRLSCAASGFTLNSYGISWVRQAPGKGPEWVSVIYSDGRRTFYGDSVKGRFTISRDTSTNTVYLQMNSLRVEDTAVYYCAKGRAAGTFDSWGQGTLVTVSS
VL: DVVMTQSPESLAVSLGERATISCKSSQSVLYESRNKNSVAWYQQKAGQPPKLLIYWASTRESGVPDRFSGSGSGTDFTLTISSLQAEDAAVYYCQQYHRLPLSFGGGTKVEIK

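The parent was found by panning a naive human phage display library on the peptide. These sequences belong to a second round, designed from the earlier measurements on random variants of the parent. Several design methods are mixed in this list. The assay is AlphaSeq: two haploid yeast populations carry antibody and antigen on their surface. The frequency of each diploid, read from paired DNA barcodes, reflects how well the two displayed proteins bind. Each replicate has its own calibration line, from reference interactions of the BCL2 family. The assay was run in six technical replicates.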

The parent's light chain CDRs are KSSQSVLYESRNKNSVA, WASTRES, QQYHRLPLS; each variant's own CDRs replace them letter for letter. This list holds designs with at most six substitutions. Affinities are written as log10 Kd with Kd in nM; a lower number is a better binder. "n.d." marks a missing value. The strain was present, yet no cells mated with the target were sequenced in that replicate, which points to weak or no binding. A sequence measured in both rounds can read differently, since the two assays cover different ranges. Background: pairings of all light chain designs with three empty control strains gave a value in 4% of cases (median 2.64, 5th percentile 1.59). Values in that range, when seen in few replicates, are hard to tell from nonspecific mating. The authors' rule: three or more of the six replicates give a measured affinity, fewer mean a poor binder.

| CDR-L1 | CDR-L2 | CDR-L3 | log10 Kd (nM) by replicate |
|---|---|---|---|
| KSGQGVLYESRNKNSVA | EASTRES | QQYHRLPLS | -0.02 / 0.24 / -0.01 / 0.20 / 0.11 / 0.08 |
| KSYISNLYESRNKNSVA | EASTRES | QQYHRLPLS | 0.67 / 0.68 / 0.46 / 0.55 / 0.65 / 0.68 |
| KSSQSVCYGDRMKNSVA | NASTREQ | QQYHRLPLS | 0.03 / 0.15 / 0.18 / 0.11 / 0.21 / 0.50 |
| KSSQSFTYESRNVNSVA | NASTRYS | QQYHRLPLS | 0.31 / 0.55 / 0.13 / 0.10 / 0.47 / 0.44 |
| KSSMSYLYESRNKNSVA | EASTREQ | QQYHRLPLS | -0.03 / -0.35 / -0.27 / -0.35 / -0.33 / -0.20 |
| KLSQSTLYESRNKNSVA | NASTRED | QQYHRLPLS | 1.53 / -0.13 / -0.26 / 0.09 / -0.10 / 0.32 |
| KSSQSVLYERENKNSVA | WASTRES | QQYHRLPLS | 1.39 / 3.50 / 1.32 / 1.03 / 1.64 / 1.83 |
| KSSQSELYESRNKNSVA | WASTRES | QQYHGLPLS | 3.98 / n.d. / n.d. / n.d. / 2.81 / 1.30 |
| KVSPSWLYESRNKNSVA | DASTRES | QQYHRLPLS | -0.02 / -0.28 / -0.23 / -0.35 / -0.29 / -0.17 |
| KLPQSWLYESRNKNSVA | NASTREV | QQYHRLPLS | 0.01 / -0.37 / 0.05 / -0.06 / -0.20 / 0.08 |
| HSSPSVEYESRNKNSVA | NASRRES | QQYHRLPLS | 0.29 / 0.47 / 0.44 / 0.40 / 0.40 / 0.44 |
| KFSQSFLYESRNKNSVA | DANTRES | QQYHRLPLS | -0.32 / -0.42 / -0.57 / -0.32 / -0.58 / -0.25 |
| KSSQSWLYESRNKNSVA | GASWRES | QQYHRLPLS | 0.10 / 0.40 / 0.57 / -0.06 / 0.31 / 0.34 |
| KSSQSVLYESRNKNSVN | WADTREY | QQYHRLPLS | n.d. / 0.93 / n.d. / 1.67 / 0.81 / 2.21 |
| KSSHSVLYESRNKNSVA | WASKRES | QQYHRLPLS | n.d. / n.d. / n.d. / n.d. / 2.71 / n.d. |
| KLYQSVPYESRNKNSVA | EASTRES | QQYHRLPLS | 0.30 / 0.15 / 0.03 / -0.14 / 0.06 / 0.04 |
| KVQQSVLYESRNKNSVA | EASTRLS | QQYHRLPLS | -0.18 / -0.22 / -0.24 / -0.27 / -0.25 / -0.22 |
| KMIQSVLYESRNKNSVA | WDSTRES | GQYHRLPLS | n.d. / n.d. / n.d. / n.d. / 2.42 / n.d. |
| KSSQSVLYEDRNCNSVA | WASTRES | QQYHWVPLE | n.d. / n.d. / n.d. / n.d. / n.d. / n.d. |
| KLSQSDLYESRMKNSVA | HASTRES | QQYHRLPLS | 0.22 / 0.24 / -0.01 / -0.15 / -0.04 / 0.14 |
| KVSQAVLYGSRNTNSVA | WASTRES | QQYHRLLLS | n.d. / n.d. / n.d. / n.d. / n.d. / n.d. |
| KSSYSYLEESRNKNSVA | EASTRES | QQYHRLPLS | 0.64 / 0.16 / 1.49 / 0.30 / 0.82 / 0.84 |
| KSSQSHLYESRNHNSVA | DASTRES | QQYHRLPLP | 0.70 / 0.65 / 0.37 / 0.58 / 0.76 / 0.73 |
| KLQQSNLYESRNKNSVA | NASTRCS | QQYHRLPLS | 0.22 / -0.41 / -0.06 / -0.41 / -0.34 / -0.22 |
| KSMQSVLQDSRNKNSVA | NASTRES | QQYHRLPLS | 0.30 / 0.31 / 0.24 / 0.09 / 0.45 / 0.41 |
| KLPQSVLYESRNKNAVA | EASTRES | QQYHRLPLS | -0.06 / -0.38 / -0.59 / -0.37 / -0.47 / -0.36 |
| KVSQSYLYESRNKWSVA | NASTRES | QQYHRLPLS | -0.07 / -0.18 / -0.30 / -0.28 / -0.15 / -0.18 |
| KSSGVVLYESHNKNSVA | NASTRMS | QQYHRLPLS | 0.81 / 0.70 / 0.64 / 0.42 / 0.48 / 0.74 |
| KSSPSDLYESVNKNSVA | HASTRES | QQYHRLPLS | 0.50 / 0.09 / 0.45 / 0.13 / 0.11 / 0.48 |
| KSSISTLYESRNKNSVA | AASTRES | QQYHRLPLS | 0.19 / 0.22 / 0.08 / 0.17 / 0.15 / 0.24 |
| ALSQSVLYESRNKNSVA | NASTRES | QQYHRLPLS | -0.34 / -0.43 / -0.40 / -0.67 / -0.59 / -0.40 |
| KSSQSYLYESGNKNSVA | NASTRMS | QQYHRLPLS | 0.29 / 0.29 / 0.05 / 0.18 / 0.23 / 0.31 |
| KSSQSVLYESRNKNSVA | WASTRES | QAYHRLPLE | 3.56 / 2.56 / 1.84 / 2.13 / 2.45 / 2.49 |

For reference, 5 entries of the list once more:

CDR-L1	CDR-L2	CDR-L3	log10 Kd (nM) by replicate
KVSQAVLYGSRNTNSVA	WASTRES	QQYHRLLLS	n.d. / n.d. / n.d. / n.d. / n.d. / n.d.
KSSQSYLYESGNKNSVA	NASTRMS	QQYHRLPLS	0.29 / 0.29 / 0.05 / 0.18 / 0.23 / 0.31
KSSQSVLYESRNKNSVN	WADTREY	QQYHRLPLS	n.d. / 0.93 / n.d. / 1.67 / 0.81 / 2.21
KSSGVVLYESHNKNSVA	NASTRMS	QQYHRLPLS	0.81 / 0.70 / 0.64 / 0.42 / 0.48 / 0.74
KLQQSNLYESRNKNSVA	NASTRCS	QQYHRLPLS	0.22 / -0.41 / -0.06 / -0.41 / -0.34 / -0.22

The measurements come from Li et al. 2023 (doi:10.1038/s41467-023-39022-2) through the FLAb antibody collection.